Earlier results as cited in patent publication US7399743B2, “Targeted thrombosis” (The Scripps Research Institute, priority 2001, dated 2008).

Molecular target: NAALADase
Details: read-out: Ki, inhibition of NAALADase activity; cited from earlier work

## Asp-β-linked-L-Glutamate (DE) [D-β-E]
  Ki: 700 nM
